The experiment concerns the target T1, Sodium- and chloride-dependent glycine transporter 1 (Homo sapiens, UniProt P48067).
T1 sequence (P48067 whole entry): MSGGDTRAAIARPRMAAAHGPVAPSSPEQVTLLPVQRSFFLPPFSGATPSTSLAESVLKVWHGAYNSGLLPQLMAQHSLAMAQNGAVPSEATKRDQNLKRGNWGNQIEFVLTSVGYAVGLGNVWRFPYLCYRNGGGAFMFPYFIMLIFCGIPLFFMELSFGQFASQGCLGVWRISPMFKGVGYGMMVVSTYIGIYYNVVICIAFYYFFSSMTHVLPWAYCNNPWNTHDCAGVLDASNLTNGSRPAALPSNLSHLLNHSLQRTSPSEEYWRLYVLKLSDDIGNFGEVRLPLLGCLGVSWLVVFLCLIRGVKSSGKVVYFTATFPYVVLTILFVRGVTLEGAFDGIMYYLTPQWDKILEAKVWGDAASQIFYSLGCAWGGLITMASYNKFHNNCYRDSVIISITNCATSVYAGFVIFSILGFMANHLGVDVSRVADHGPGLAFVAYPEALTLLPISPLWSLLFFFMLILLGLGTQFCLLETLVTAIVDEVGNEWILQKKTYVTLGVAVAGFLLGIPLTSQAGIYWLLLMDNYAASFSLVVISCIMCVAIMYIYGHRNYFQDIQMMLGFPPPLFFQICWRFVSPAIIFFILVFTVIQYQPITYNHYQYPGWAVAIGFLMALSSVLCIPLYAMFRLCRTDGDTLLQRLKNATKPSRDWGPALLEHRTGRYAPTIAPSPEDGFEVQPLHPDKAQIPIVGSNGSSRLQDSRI

In general, IC50 refers to the point on the concentration scale where inhibition reaches its midpoint. Lower therefore signals higher potency.

As for `CCC1CCCCN1C[C@@H](O)CNS(=O)(=O)c1cccc2ccccc12` (stereo partly specified), it took 7.94 µM to reach half-maximal inhibition (IC50).

Values taken from ChEMBL document CHEMBL1139093, “1,3-diaminopropan-2-ol sulfonamides as potent and selective inhibitors of the glycine transporter type 1” (Bioorg Med Chem Lett, 2007).
